According to patent US20210138080A1, “CONJUGATES” (GLYKOS BIOMEDICAL OY, priority 2018, published 2021):

Test system: HER2-positive cancer cells xenograft tumors
Experiment: Galectin activity in xenograft tumors of tumour-bearing mice
Assay type: in vivo
Settings: 10 mg/kg daily intravenous in PBS
Description: HER2-positive cancer cells are cultured as described above, injected subcutaneously to mice (about 1-10 million cells/mouse in Matrigel), and allowed to form xenograft tumors of about 100 mm^3. Mice are divided into groups that receive daily 100 μl intravenous injections of either I) PBS (vehicle control), II) 10 mg/kg trastuzumab in PBS (antibody control), III) 10 mg/kg DAR=2 6-succinyl-33DFTG-trastuzumab in PBS, or IV) 10 mg/kg DAR=8 6-succinyl-33DFTG-trastuzumab in PBS. […] The ADC therapy is further combined with immune checkpoint inhibitor therapy by intravenous injection of therapeutic dose of anti-PD-1 antibody or anti-PD-L1 antibody in further groups of mice for even greater anti-cancer activity.

Substance	Galectin activity in tumors compared to groups I-II
DAR=8 6-succinyl-33DFTG-trastuzumab	Lower Galectin activity
DAR=2 6-succinyl-33DFTG-trastuzumab	Lower Galectin activity
